Measurements from ChEMBL document CHEMBL3407371, “Elimination of a cholecystokinin receptor agonist 'trigger' in an effort to develop positive allosteric modulators without intrinsic agonist activity” (Bioorg Med Chem Lett, 2015).

Amino acid sequences for entries named in this document (tags omitted).
UniProt P32238, whole entry L356H: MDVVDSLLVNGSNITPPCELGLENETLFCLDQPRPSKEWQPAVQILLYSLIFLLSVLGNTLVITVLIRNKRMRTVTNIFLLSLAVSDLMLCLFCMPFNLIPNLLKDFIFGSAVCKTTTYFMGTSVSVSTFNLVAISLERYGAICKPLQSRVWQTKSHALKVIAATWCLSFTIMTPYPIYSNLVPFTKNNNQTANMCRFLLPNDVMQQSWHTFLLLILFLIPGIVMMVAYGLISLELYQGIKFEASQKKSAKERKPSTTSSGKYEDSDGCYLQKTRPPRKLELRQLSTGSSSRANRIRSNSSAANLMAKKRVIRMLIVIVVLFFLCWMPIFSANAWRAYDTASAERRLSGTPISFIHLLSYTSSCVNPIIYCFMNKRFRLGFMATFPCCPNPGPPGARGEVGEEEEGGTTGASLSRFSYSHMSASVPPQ
UniProt P32238, whole entry: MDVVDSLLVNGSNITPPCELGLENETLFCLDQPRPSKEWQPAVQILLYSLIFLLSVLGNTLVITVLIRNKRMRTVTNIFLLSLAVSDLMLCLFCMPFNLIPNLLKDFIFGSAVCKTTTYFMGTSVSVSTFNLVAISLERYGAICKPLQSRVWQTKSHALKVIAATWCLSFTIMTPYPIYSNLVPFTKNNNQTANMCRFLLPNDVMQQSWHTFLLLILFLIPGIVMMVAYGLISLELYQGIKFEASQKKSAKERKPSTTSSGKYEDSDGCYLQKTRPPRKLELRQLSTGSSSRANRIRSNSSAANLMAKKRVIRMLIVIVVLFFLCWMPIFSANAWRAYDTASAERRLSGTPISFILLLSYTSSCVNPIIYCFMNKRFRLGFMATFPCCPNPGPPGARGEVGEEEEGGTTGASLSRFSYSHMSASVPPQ
UniProt P32238, whole entry N98T: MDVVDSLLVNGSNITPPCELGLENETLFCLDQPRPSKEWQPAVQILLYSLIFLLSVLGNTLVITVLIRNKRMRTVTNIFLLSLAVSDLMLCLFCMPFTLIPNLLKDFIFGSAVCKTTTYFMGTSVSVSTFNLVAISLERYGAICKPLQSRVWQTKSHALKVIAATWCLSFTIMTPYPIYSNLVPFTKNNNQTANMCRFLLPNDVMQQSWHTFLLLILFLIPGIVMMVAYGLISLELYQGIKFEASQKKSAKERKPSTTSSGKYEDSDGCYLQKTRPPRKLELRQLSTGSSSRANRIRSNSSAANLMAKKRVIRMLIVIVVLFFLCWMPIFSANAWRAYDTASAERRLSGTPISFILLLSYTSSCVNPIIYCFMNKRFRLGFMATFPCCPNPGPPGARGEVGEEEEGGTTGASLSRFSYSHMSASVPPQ
UniProt P32238, whole entry T117V/T118S: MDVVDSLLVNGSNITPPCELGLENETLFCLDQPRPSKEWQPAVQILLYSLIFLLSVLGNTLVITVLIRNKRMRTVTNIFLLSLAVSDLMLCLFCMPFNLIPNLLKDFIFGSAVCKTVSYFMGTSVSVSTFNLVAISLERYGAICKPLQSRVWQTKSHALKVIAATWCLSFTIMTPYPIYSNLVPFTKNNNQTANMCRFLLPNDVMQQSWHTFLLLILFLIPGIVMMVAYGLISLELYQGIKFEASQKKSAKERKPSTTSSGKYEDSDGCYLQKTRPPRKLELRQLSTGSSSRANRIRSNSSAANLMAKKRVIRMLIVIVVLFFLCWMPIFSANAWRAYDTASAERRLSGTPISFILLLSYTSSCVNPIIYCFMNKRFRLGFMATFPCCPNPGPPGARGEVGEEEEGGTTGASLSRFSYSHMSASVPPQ

Key:
[1] = target: T1, Cholecystokinin receptor type A (Homo sapiens, UniProt P32238, L356H); type: cell-based, CHO
[2] = target: T2, Cholecystokinin receptor type A (Homo sapiens, UniProt P32238); type: cell-based, CHO
[3] = target: T3, Gastrin/cholecystokinin type B receptor (Homo sapiens, UniProt P32239); type: cell-based, CHO
T3 sequence (P32239 whole entry): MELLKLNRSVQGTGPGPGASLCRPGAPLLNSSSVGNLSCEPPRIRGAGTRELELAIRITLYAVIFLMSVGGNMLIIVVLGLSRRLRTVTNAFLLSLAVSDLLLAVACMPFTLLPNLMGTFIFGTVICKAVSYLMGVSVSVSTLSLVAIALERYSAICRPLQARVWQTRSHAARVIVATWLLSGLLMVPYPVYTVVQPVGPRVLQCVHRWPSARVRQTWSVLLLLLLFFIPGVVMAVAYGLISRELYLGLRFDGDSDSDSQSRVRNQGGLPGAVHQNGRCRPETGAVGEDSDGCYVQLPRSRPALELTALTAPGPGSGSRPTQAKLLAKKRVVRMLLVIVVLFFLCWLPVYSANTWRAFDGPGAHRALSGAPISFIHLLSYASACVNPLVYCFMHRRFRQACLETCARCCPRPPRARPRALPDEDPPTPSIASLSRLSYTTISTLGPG

[4] = target: Cholecystokinin receptor type A (Homo sapiens, UniProt P32238, N98T); type: cell-based, CHO
[5] = target: T2, Cholecystokinin receptor type A; type: cell-based; conditions: cho
[6] = target: T4, Cholecystokinin receptor type A (Homo sapiens, UniProt P32238, T117V/T118S); type: cell-based, CHO
[7] = target: T4, Cholecystokinin receptor type A; type: cell-based, CHO; remark: listed apart in the source
[8] = target: T2, Cholecystokinin receptor type A; assay: Activity at CCK1R (unknown origin) expressed in CHO cells assessed as stimulation of intracellular calcium responses; type: functional, cell-based
How it was run: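 Intact CHO cell lines stably expressing CCK1R or CCK2R; intracellular calcium measured after adding compound alone. […] Peak responses and EC50 values taken from concentration-response curves. Duplicate determinations, at least three independent experiments, means ± S.E.M.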

[9] = target: T2, Cholecystokinin receptor type A; type: cell-based; conditions: cho; remark: listed apart in the source
[10] = target: T1, Cholecystokinin receptor type A; type: cell-based, CHO; remark: listed apart in the source

O=C(CN1C(=O)C(NC(=O)Nc2ccccc2)C(=O)N(c2ccccc2)c2ccccc21)Nc1ccccc1 (stereo not given)
IC50 [1]: 303 nM
IC50 [2]: 541 nM
IC50 [3]: 31.7 nM
IC50 [4]: 128 nM
IC50 [5]: 317 nM
IC50 [6]: 259 nM
IC50 [7]: 1000 nM
EC50 [8]: > 1000 nM
IC50 [9]: > 1000 nM
IC50 [10]: 505 nM
